Results published in ChEMBL document CHEMBL1140798, “Novel thiol-based TACE inhibitors. Part 2: Rational design, synthesis, and SAR of thiol-containing aryl sulfones” (Bioorg Med Chem Lett, 2008).
pKi: −log10 of the molar value.

By UniProt entry, the sequences of proteins in these tests, tags left out. Where a name states a change or a piece, a line headed by the entry shows the natural chain unless it says otherwise.
UniProt P78536: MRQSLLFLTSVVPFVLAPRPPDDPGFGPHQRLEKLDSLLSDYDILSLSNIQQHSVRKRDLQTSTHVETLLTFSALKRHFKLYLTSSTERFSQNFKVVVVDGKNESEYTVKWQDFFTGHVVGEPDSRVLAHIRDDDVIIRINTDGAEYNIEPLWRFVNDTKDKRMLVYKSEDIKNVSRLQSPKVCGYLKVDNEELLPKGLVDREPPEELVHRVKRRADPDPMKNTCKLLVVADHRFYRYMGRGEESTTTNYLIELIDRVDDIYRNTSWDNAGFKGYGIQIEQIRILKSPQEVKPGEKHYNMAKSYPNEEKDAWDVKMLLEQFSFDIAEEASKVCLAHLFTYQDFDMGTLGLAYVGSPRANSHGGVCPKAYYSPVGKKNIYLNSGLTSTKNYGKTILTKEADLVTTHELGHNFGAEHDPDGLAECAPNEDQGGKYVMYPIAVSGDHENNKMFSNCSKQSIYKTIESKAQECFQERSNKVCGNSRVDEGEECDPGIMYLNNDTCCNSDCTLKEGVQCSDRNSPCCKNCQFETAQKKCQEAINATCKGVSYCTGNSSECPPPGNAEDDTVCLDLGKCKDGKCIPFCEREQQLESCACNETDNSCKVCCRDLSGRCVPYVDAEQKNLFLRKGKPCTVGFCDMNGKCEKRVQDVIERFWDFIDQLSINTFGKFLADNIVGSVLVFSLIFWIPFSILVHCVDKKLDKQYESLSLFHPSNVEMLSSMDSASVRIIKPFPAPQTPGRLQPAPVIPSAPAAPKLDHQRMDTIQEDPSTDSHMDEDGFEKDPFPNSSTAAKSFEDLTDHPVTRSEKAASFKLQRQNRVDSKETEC

Target: Disintegrin and metalloproteinase domain-containing protein 17 (Homo sapiens, UniProt P78536)
Test: Inhibition of TACE

pKi: 8.00
Structure (SMILES): CC#CCOc1ccc(S(=O)(=O)CCCS)cc1
